Screening results from PubChem.
Most compounds without a hit are left out; they make up all but 13% or so of the library.
miR-21 reporter = raises the signal of a miR-21 reporter | HeLa miR-21 FLuc reporter, luciferase, 48 h | Potency, µM (highest dose often 38.3 µM), for inactives: at the highest dose reporter change, positive = more light | 340,000 tested, under 10 active | AID 2288; active = well fitted rising curve with a large enough effect; inconclusive = small, poorly fitted or top-dose-only effect; inactive = no such curve, though single readings can be large or run the other way;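 also: % of control where 0% means no effect; miR-21 action dims this reporter so a rising signal means less miR-21 action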
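HeLa cells endogenously expressing miR-21, stably carrying CMV-driven firefly luciferase with a downstream miR-21 binding site, 2000 cells/well. Titrations up to approximately 40 uM, 48 hours; luciferase luminescence read.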
KDM4E inh = blocks human JMJD2E demethylase activity. Potency, µM (series often up to 57.1 µM), without a hit: at the highest dose activity change, negative = inhibition, most hits filed as inhibitors. actives 1.6% (n = 230,000). JMJD2E catalytic domain, FDH-coupled NADH fluorescence (FDH is formaldehyde dehydrogenase). B2RXH2. AID 2147; active means well fitted inhibition curve with a large enough effect, not every such curve was filed as active; inconclusive means small, poorly fitted or top-dose-only effect, or another doubt; inactive means no such curve, though single readings can be large or run the other way;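 further: potency means the concentration at half of the fitted maximal effect; 0% = wells with enzyme and -100% = buffer wells without enzyme; nearly all actives have a fitted effect of over 50% in size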
G9a inh = inhibitors of human histone lysine methyltransferase G9a; Q96KQ7; G9a H3K9 monomethylation, AlphaScreen, 2 h; Potency, µM (series often up to 102 µM), without a hit: at the top dose activity, negative = inhibition, hits mostly inhibitors; actives 8.8% (n = 350,000); AID 504332; further: potency means the concentration at half of the fitted maximal effect; on the % scale 0 is the no-effect control and ±100 the full control effect; nearly all actives have a fitted effect of over 75% in size
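Compounds were preincubated with 20 nM G9a for 15 min, after which biotinylated H3K9 peptide (500 nM) and SAM (20 uM) started a 2 h room-temperature reaction. Monomethylated product was quantified by antibody-based AlphaScreen chemiluminescence.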
ALDH1A1 block = ALDH1A1 (human) enzyme inhibition | P00352 | Purified ALDH1A1, NADH fluorescence, propionaldehyde substrate | Potency, µM (top dose mostly 75.3 µM), inactives show top-dose activity, negative = inhibition, actives largely listed as inhibitors | actives 7.3% (n = 220,000); active means well fitted inhibition curve with a large enough effect, not every such curve was filed as active; inconclusive means small, poorly fitted or top-dose-only effect, or another doubt; inactive means no such curve, though single readings can be large or run the other way;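 further: potency means the concentration at half of the fitted maximal effect; plate controls were no enzyme wells and a reference inhibitor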
Sfp inh = inhibitors of Bacillus subtilis Sfp phosphopantetheinyl transferase. Q9F4F7. Biochemical Sfp PPTase activity, qHTS. Potency, µM, without a hit: max response, negative = inhibition, most hits filed as inhibitors. 3.5% of 310,000 active; active = well fitted inhibition curve with a large enough effect; inconclusive = small, poorly fitted or top-dose-only effect, or another doubt; inactive = no such curve, though single readings can be large or run the other way;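 note: the enzyme is Sfp with the accession as filed and its product quenches rhodamine fluorescence; potency is the fitted concentration of half-maximal effect; 0% = enzyme reaction without inhibitor and -100% = no enzyme wells; top concentration of the series not given in the record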
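Reaction rates are the 30-min fluorescence difference (ex 525, em 598 nm) in wells containing 15 nM Sfp, 5 uM rhodamine-CoA and 12.5 uM BHQ-2-YbbR at pH 7.6 with 10 mM MgCl2.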
LMNA splice mod = LMNA splicing modulation | Potency, µM (doses to about 46.1 µM), for inactives: top-dose ratio change, negative = inhibition, usual class: inhibitors | actives 0.01% (n = 200,000) | HeLa LMNA splicing GFP/RFP minigene ratio, 48 h; active means well fitted inhibition curve with a large enough effect in the signal ratio, with a control signal flat, not every such curve was filed as active; inconclusive means small, poorly fitted or top-dose-only effect, or effect the other way, or a change in a side signal; the % refers to the signal ratio; further: potency means the concentration at half of the fitted maximal effect; on the % scale 0 is the no-effect control and ±100 the full control effect
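Read-out is the ratio of GFP to DsRed2 object intensity, acquired by 488 nm laser-scanning cytometry on HeLa lamin A-EGFP minigene reporter cells. Compound incubation 48 hrs at 37 °C in Opti-MEM with 2% FBS; DMSO 0.5% final.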
Active calls of the source: *; ? = inconclusive; . = no result; [ ] = another dose, or the depositor's remark. Unless noted, the call rests on the fitted dose curve; in most records, active means well fitted curve in the direction sought with a large enough effect; inconclusive means small, poorly fitted or top-dose-only effect, or another doubt; inactive means no such curve, though single readings can be large; an effect the other way counts as inactive or inconclusive.

SMILES	miR-21 reporter	KDM4E inh	G9a inh	ALDH1A1 block	Sfp inh	LMNA splice mod
CNC(=O)c1sccc1SCc1c(Cl)cccc1Cl	1%	-4%	11%	0%	-5%	-2%
CC(C)CC(=O)OCc1cc(=O)n2nc(C3CCCCC3)sc2n1	-12%	.	14%[59 µM]	.	.	14%[46 µM]
COc1ccc(Nc2nc(NC(C)(C)C)nc(N3CCCC3)n2)c(OC)c1	3%	-7%	40µM*	-2%	7%	?
COc1ccc(Nc2nc(Nc3ccc(OC)cc3OC)nc(N3CCN(C)CC3)n2)c(OC)c1	-10%	-1%	13µM*	5%	?	7%
COc1ccc(Nc2nc(N3CCCC3)nc(N3CCCC3)n2)c(OC)c1	-1%	9%	-3%[12.7 µM]	-7%	?	7%
COc1ccc(Nc2nc(NC(C)(C)C)nc(N3CCOCC3)n2)c(OC)c1	-18%	3%	40µM*	-3%	-1%	-5%[46 µM]
Cc1ccc(-c2csc(NC(=O)c3ccno3)n2)cc1	-41%	-3%	50µM*	?	0%	1%
COC(=O)c1c(-c2ccc(F)cc2)csc1NC(=O)C1CCCO1 (stereo unspecified)	-59%	2%	-35%	20µM*	-26%	.
COc1ccc(-c2csc(NC(=O)c3ccoc3C)n2)cc1	-35%	-10%	50µM*	-4%	?	.
COc1ccc(-c2csc(NC(=O)c3c(C)noc3C)n2)cc1	.	.	1%[12.7 µM]	.	.	.
COc1ccc(-c2csc(NC(=O)C3CCCO3)n2)cc1 (stereo unspecified)	-33%	-1%	13µM*	22µM*	-17%	?
COc1ccc(NC(=O)C2CCCO2)cc1 (stereo unspecified)	-33%	15%	1%[59 µM]	6%	18%	-2%
Cc1ccc(-c2csc(NC(=O)c3ccc(C)o3)n2)cc1	-28%	?	?	-3%	-11%	?
Cc1ccc(C)c(C(C)NC(=O)c2ccc(Br)o2)c1 (stereo unspecified)	-5%	-11%	50µM*	4µM*	50µM*	.
Cc1ccc(C)c(C(C)NC(=O)CC#N)c1 (stereo unspecified)	1%	22%	.	-5%	6%	.
CCCCCCCCCCCCC(=O)N1CCCC[C@H]1CNC(=O)[C@@H](N)CCCCN	.	-4%	.	-3%	50µM*	.
CSc1ccccc1NC(=S)N/N=C/c1cccn1Cc1ccc(F)cc1	16%	7%	32µM*	?	37%	-2%[46 µM]
COc1ccc(NC(=S)N/N=C/c2cccn2Cc2ccc(F)cc2Cl)cc1	-2%	5%	22µM*	?	-6%	-11%[46 µM]
CSc1ccccc1NC(=S)N/N=C/c1cccn1Cc1cccc(C)c1	14%	-7%	25µM*	9%	12%	1%[46 µM]
Cc1cccc(NC(=S)N/N=C/c2cccn2Cc2ccc(F)cc2)c1	23%	468%	?	17%	-15%	.

Entries shown so far that contain an aryl thioether with sulfur outside any ring, in the order listed:
SMILES	miR-21 reporter	KDM4E inh	G9a inh	ALDH1A1 block	Sfp inh	LMNA splice mod
CNC(=O)c1sccc1SCc1c(Cl)cccc1Cl	1%	-4%	11%	0%	-5%	-2%
CSc1ccccc1NC(=S)N/N=C/c1cccn1Cc1ccc(F)cc1	16%	7%	32µM*	?	37%	-2%[46 µM]
CSc1ccccc1NC(=S)N/N=C/c1cccn1Cc1cccc(C)c1	14%	-7%	25µM*	9%	12%	1%[46 µM]

Next compounds:
SMILES	miR-21 reporter	KDM4E inh	G9a inh	ALDH1A1 block	Sfp inh	LMNA splice mod
C/C(=N\N1CCN(c2ccccc2)CC1)c1ccc(O)cc1	-14%	.	2%	.	8%	.
COc1ccccc1CNC(=O)CC(c1ccc(F)cc1)N1Cc2ccccc2C1=O (stereo unspecified)	?	.	-20%[59 µM]	.	.	.
COC(=O)c1c(C)n(-c2ccccc2)c2ccc(O)cc12	11%	?	-3%[0.0925 µM]	-14%	?	7%
COC(=O)c1cc2c(-c3ccccc3)cc3ccccn3c-2c1C(=O)OC	-1%	-1%	13µM*	?	-11%	-27%
COC(=O)c1c(C(=O)OC)c2cccc3cc(-c4ccccc4)c4ccc1c4n32	-1%	2.5µM*	?	-11%	-6%	11%
COC(=O)c1c(C)c2c(C)cc3ccccn3c-2c1C(=O)OC	2%	9%	?	-6%	-6%	-6%
Cn1c(CCC(N)=O)nnc1SCC(=O)Nc1ccccc1C(=O)NC1CC1	.	.	-62%[12.7 µM]	.	.	.
Cc1cccc(NC(=O)N2CCCC2C(=O)Nc2ccccc2)c1 (stereo unspecified)	-1%	-3%	3%	31%	21%	?

Quoted at random: two compounds from above
SMILES	miR-21 reporter	KDM4E inh	G9a inh	ALDH1A1 block	Sfp inh	LMNA splice mod
C/C(=N\N1CCN(c2ccccc2)CC1)c1ccc(O)cc1	-14%	.	2%	.	8%	.
COC(=O)c1cc2c(-c3ccccc3)cc3ccccn3c-2c1C(=O)OC	-1%	-1%	13µM*	?	-11%	-27%
